# Measurements taken from PubChem BioAssay AID1745853 (National Center for Advancing Translational Sciences (NCATS), 2022).
# Protein sequences, listed by entry. Tags and fused reporters are not part of them.
# UniProt P21964, whole entry: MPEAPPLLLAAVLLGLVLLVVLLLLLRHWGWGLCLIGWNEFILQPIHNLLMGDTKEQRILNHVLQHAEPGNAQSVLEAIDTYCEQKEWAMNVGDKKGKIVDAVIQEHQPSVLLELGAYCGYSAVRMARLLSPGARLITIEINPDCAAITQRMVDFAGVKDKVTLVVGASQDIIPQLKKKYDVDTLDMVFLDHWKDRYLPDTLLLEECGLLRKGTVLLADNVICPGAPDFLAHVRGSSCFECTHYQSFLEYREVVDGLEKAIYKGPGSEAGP
# Only a part is listed here, and it is no random draw. Results filed as inconclusive are left out. Active and inactive are the calls of the source. No rule for the calls is given here.
# Molecular target: Catechol O-methyltransferase (Homo sapiens) (UniProt P21964)
# Test: Primary Screen for Target Class Profiling of Small Molecule Inhibitors of Methyltransferases
# Conditions: purified enzyme, MTase-Glo SAH luminescence; at 40 µM; hits give low values
# Description: PI: Matthew D. Hall Ph.D. and Quinlin M. Hanson Ph.D.
# National Center for Advancing Translational Sciences (NCATS)
# National Institute of Health (NIH), Rockville, MD
# Target class profiling (TCP) is a chemical biology approach amenable to investigating understudied biological targets. TCP is achieved by developing a generalizable assay platform and applying it to screen a curated set of compound libraries against representative members of a target class. Small molecule methyltransferases (SMMTase) are a subclass of methyltransferase that act on metabolites to modulate signaling pathways, metabolize xenobiotics, or balance the available methyl pool. […]
# High-through put screening assays were developed at the National Center for Advancing Translational Science (NCATS) for the enzymes NNMT, PNMT, HNMT, GNMT, COMT, and GAMT. Enzymatic activity was measured as a function of SAM cofactor conversion using the MTase Glo kit (Promega) for all enzymes. […] The IC50 and efficacy (maximal response) values were determined for each dose-response curve. […]
# 10; Time; 30 min; Incubation, luminescence evolution.
# 11; Detection; Luminescence; ViewLux uHTS Microplate Imager (PerkinElmer). […]
# % is scaled to controls: 0 for no effect and ±100 for the full control effect.
row,SMILES,"activity change, negative = inhibition"
1,CC(=O)N1CCc2ccc(N(C(=O)/C=C/c3cccc(C#N)c3)C3CCN(CCC4CCCC4)CC3)cc21,inactive: 7.26%
